# Test results reported in ChEMBL document CHEMBL6134857, “Novel Spiro-Barbiturates Can Reverse the Action of General Anesthetics on the GABAAR” (J Med Chem, 2025).
# Biological target: T1, GABA-A receptor; alpha-1/beta-3/gamma-2 (Homo sapiens, UniProt P14867+P18507+P28472)
# T1 sequence (P14867 whole entry): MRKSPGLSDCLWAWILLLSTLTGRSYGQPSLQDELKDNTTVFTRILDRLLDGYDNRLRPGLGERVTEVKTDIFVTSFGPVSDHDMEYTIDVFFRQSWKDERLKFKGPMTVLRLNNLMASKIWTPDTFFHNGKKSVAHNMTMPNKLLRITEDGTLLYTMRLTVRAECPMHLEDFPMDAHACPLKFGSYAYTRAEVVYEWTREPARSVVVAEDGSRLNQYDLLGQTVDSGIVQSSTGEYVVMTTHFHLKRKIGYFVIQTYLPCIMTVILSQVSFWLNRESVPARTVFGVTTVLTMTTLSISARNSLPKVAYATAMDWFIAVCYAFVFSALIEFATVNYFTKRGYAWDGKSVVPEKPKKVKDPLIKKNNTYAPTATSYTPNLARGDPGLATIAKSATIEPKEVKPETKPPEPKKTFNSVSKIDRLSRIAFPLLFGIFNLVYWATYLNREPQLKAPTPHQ
# T1 sequence (P18507 whole entry): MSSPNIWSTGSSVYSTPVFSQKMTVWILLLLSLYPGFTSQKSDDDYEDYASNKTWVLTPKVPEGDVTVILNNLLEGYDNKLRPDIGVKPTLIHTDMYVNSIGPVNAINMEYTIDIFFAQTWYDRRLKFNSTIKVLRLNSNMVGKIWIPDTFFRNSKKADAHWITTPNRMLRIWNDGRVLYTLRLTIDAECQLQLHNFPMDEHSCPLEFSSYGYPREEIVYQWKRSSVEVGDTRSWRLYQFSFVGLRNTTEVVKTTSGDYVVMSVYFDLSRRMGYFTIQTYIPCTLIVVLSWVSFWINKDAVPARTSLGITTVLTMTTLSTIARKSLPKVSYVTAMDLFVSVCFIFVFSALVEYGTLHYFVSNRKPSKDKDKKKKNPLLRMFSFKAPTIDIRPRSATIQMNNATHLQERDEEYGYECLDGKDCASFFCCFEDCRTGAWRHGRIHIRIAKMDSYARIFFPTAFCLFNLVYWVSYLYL
# T1 sequence (P28472 whole entry): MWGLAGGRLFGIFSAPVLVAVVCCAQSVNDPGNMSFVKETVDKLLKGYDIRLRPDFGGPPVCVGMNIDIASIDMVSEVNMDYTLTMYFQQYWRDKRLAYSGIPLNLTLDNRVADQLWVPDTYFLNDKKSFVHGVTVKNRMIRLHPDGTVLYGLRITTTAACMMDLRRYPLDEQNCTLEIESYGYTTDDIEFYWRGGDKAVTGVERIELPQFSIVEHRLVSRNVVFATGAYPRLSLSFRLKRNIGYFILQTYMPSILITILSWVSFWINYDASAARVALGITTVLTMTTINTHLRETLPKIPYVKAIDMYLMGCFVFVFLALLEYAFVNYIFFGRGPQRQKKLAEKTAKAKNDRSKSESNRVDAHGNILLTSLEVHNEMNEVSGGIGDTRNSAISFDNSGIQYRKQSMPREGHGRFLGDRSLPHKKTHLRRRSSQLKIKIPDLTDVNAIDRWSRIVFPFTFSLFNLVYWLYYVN
# Assay: Positive allosteric modulation of [3H]muscimol binding to full length human N-terminal flag-tagged alpha1-beta3-C-terminal 1D4-tagged gamma2 GABAA receptor extracted from Tetracycline-resistant HEK293 cell membrane
# Assay type: cell membranes
compound,measurement,value
C=CC[C@@]1(c2cccc(C3(C(F)(F)F)N=N3)c2)C(=O)NC(=O)N(C)C1=O,EC50,1300 nM
